Patent publication US20260232768A1, “TREATMENT OF ATOPIC DERMATITIS WITH POLYETHYLENE GLYCOL-MODIFIED INTERLEUKIN 2, GLUCOCORTICOID AND HYALURONIC ACID” (priority 2023, published 2026)

What was measured:
Format in all cases: in vivo, BALB/c mice
[1] = test system: CD25+FoxP3+ cells in spleen CD3+CD4+ lymphocytes and PD-1+ cells in CD3+CD4+CD25+FoxP3+ cells; test: Intraperitoneal injection in physiological model mice, spleen Treg and PD-1 by flow cytometry; conditions: detected on day 4
Method: During the whole experiment, the mice were randomly divided into 28 groups, 6 mice in each group. The administration mode of each treatment group in AD model mice was the aforementioned patch method, the patch was prepared by wetting a 1.5×1.5 cm^2 sterile gauze in the drug solution (approximately containing 100 μL drug solution and/or 50 μL hyaluronic acid), the drugs were dissolved in PBS solution, at a concentration of 100,000 IU/ml of normal IL-2 or PEG-IL-2, 20 μg/ml of budesonide, 100 μg/mL of dexamethasone, and 50 mg/mL of hyaluronic acid (HA). Administration was continued for three consecutive days starting at day 4-5 of induced mouse dermatitis, and was changed every day, except that the administration protocol was different among groups, and the rest conditions remained consistent. After 3 days, the mice were euthanized, and the skin tissue, spleen, and blood of the administered site were taken for further detection. […]

[2] = test system: OVA induced atopic dermatitis (AD) mouse model; test: OVA induced atopic dermatitis (AD) mouse model, skin inflammation status scoring; conditions: AD model mice, topical patch for 3 consecutive days; total score 0-12; 6 mice per group
Excerpt: (§1) The mouse atopic dermatitis model was generated by the method with minor modifications according to the literature [JIN H, et al. Animal models of atopic dermatitis. J Invest Dermatol, 2009, 129 (1): 31-40; KIM W H, et al. Beneficial effects of melittin on ovalbumin-induced atopic dermatitis in mouse. Sci Rep, 2017, 7 (1): 17679; WANG G, et al. Repeated epicutaneous exposures to ovalbumin progressively induce atopic dermatitis-like skin lesions in mice. Clin Exp Allergy, 2007, 37 (1): 151-61]. Chicken ovalbumin (OVA) sensitized BALB/c mice were common mouse models of type I allergic diseases. 10 μg OVA was mixed with 2 mg of aluminum hydroxide in 200 μL of phosphate buffer (PBS) solution, intraperitoneally injected to sensitize mice, once every week (at day 0, 7 and 14), each mouse was injected 3 times, 200 μL each time. […] The OVA patch was prepared by wetting a 1.5×1.5 cm^2 sterile gauze in a solution of 1 mg/mL of OVA (dissolved in PBS) (approximately 100 μL of OVA solution), and was attached using a transparent dressing to the back skin after epilation and replaced daily for 3-7 days to develop dermatitis manifestation, and the status of the back skin of the mice was recorded photographically on day 4~5 after inducing mouse dermatitis (the dermatitis manifestation was most obvious), and the skin inflammation status was scored. […]

[3] = test system: CD25+FOXP3+ Treg cells in skin CD4+ cells; test: Ratio of Treg cells in skin of AD model mice via flow cytometry; conditions: after 3 days of topical administration
Excerpt: as §1

[4] = test system: skin thickness and inflammatory cell infiltration; test: Skin tissue pathological H&E staining in AD model mice; conditions: after 3 days of topical administration
Excerpt: The mouse atopic dermatitis model was generated by the method with minor modifications according to the literature [JIN H, et al. Animal models of atopic dermatitis. J Invest Dermatol, 2009, 129 (1): 31-40; KIM W H, et al. Beneficial effects of melittin on ovalbumin-induced atopic dermatitis in mouse. Sci Rep, 2017, 7 (1): 17679; WANG G, et al. Repeated epicutaneous exposures to ovalbumin progressively induce atopic dermatitis-like skin lesions in mice. Clin Exp Allergy, 2007, 37 (1): 151-61]. Chicken ovalbumin (OVA) sensitized BALB/c mice were common mouse models of type I allergic diseases. 10 μg OVA was mixed with 2 mg of aluminum hydroxide in 200 μL of phosphate buffer (PBS) solution, intraperitoneally injected to sensitize mice, once every week (at day 0, 7 and 14), each mouse was injected 3 times, 200 μL each time. On day 14, mice were anesthetized using pentobarbital intraperitoneal injection. During anesthesia, the back skin hair was removed with electric clipper and depilatory paste, and after clearing, the medical adhesive tape was directly pasted on the back skin for several seconds and then torn off, repeated about 4 times to destroy the stratum corneum on the surface of skin, and then the OVA patch was pasted on the mouse skin to induce atopic (allergic) dermatitis in mice. […]

| Substance | up-regulation of FoxP3+ regulatory T cells in spleen (in words) [1] | Dermatitis score (χ ± s) [2] | effect on proportion of Treg cells in skin (in words) [3] | skin thickness and inflammatory cell infiltration in pathological section (in words) [4] |
| --- | --- | --- | --- | --- |
| 20 kD PEG-IL-2: recombinant human IL-2 modified with 20 kDa non-branched PEG (M-ALD-20 kD) | did not up-regulate Tregs |  |  |  |
| 40 kD PEG-IL-2: recombinant human IL-2 modified with 40 kDa non-branched PEG (M-ALD-40 kD) | did not up-regulate Tregs | 2.667 ± 0.516 ^ | no significant change | no significant improvement |
